{"sequences": {"note": "The chains behind the UniProt entries cited, without tags or fusion partners.", "UniProt P10415, whole entry": "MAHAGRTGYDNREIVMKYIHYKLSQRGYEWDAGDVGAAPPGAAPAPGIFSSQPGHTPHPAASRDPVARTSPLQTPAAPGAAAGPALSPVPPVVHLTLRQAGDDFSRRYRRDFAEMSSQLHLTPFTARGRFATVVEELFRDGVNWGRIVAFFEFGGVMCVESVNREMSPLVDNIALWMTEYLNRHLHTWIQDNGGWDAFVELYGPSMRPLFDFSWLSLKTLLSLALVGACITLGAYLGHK"}, "source": "paper PMC5929447", "about": "“S55746 is a novel orally active BCL-2 selective and potent inhibitor that impairs hematological tumor growth” (Oncotarget, 2018)", "key": {"BCL-2 [1]": {"target": "T1, BCL-2 (Homo sapiens, UniProt P10415)", "assay": "Isothermal titration calorimetry (ITC), BCL-2", "format": "binding", "conditions": "25 °C; ND = not determinable (too potent); read-out: ITC_BCL-2_KD", "method": "The protein was dialyzed prior to use in 2 L of 25 mM HEPES, 150 mM NaCl, 5% glycerol (v/v), 0.5% MTG (v/v) at pH 7.4 for 3 hours at room temperature. The protein was dialyzed using a 3.5 K MWCO Slide-A-Lyzer™ cassette. The protein solution was recovered, spin-filtered through a […] frit. The filtered protein was quantified by UV absorbance at 280 nm using an extinction coefficient of 36440 M^-1cm^-1. 500 ml of dialysis buffer was retained (remainder used to rinse out SCHOT bottle) and degassed for a minimum of 30 mins under vacuum with constant stirring. Typically, 50 μM protein was titrated from the syringe into the cell containing 5 μM compound. The solutions were carefully matched to ensure same solvent and buffer conditions were present in both syringe and cell (this is to minimize heat of dilution effects). The final solution was the dialysis buffer plus 1% DMSO and 0.05% P20. The experiment was performed over 13 injections with stirring at 1000 rpm, gain setting low and at 25° C. Pure water was used in the reference cell. The first injection was 0.5 μl with a duration of 1 second with a gap of 150 seconds until the further 12 injections of 3.05 μl with a duration 6.1 seconds and a 240 second interval between injections. Data was analyzed using the vendor supplied software, PEAQ-ITC Analysis Software. The data model used was the single site model. […]"}, "BCL-2 [2]": {"target": "T1, BCL-2", "assay": "Surface plasmon resonance affinity in solution (SPR AIS), BCL-2", "format": "binding", "conditions": "read-out: SPR AIS_BCL-2_KD"}}, "data": [{"smiles": "O=C(c1cc(-c2cc3c(cc2C(=O)N2Cc4ccccc4C[C@H]2CN2CCOCC2)OCO3)n2c1CCCC2)N(c1ccccc1)c1ccc(O)cc1", "note": "[S55746]", "values": [{"measurement": "Kd", "setting": "BCL-2 [1]", "result": 2.47, "unit": "nM"}, {"measurement": "Kd", "setting": "BCL-2 [2]", "result": 3.9, "unit": "nM"}]}]}
